In assay [1] the target is T1, human insulin receptor (HIR) (human, UniProt P06213 28-1382, limits assumed).
T1 construct: Detergent-solubilised receptor; The natural receptor is an alpha2-beta2 heterotetramer cleaved from one precursor
The assay can be described thus: 125I-insulin displacement, solubilised HIR.

The target in assay [2] is T2, recombinant human IGF-1R (rhIGF-1R) (human, UniProt P08069 31-935).
T2 construct: extracellular domain; Coated on plates in the TRF assay and europium-labelled (LANCE) in the TR-FRET assays; also called rhIGE-1R; Eu3+-rhIGF-1R
The assay can be described thus: TR-FRET competition with b-20E2 for rhIGF-1R. (In general: In TR-FRET formats the signal depends on donor and acceptor labels being close together.)

The target of assay [3] is human insulin receptor (HIR) (human, UniProt P06213 28-1382, limits assumed). As to the kind of experiment: HIR Kd, Table 14; competition with 125I-insulin on solubilised HIR (method of Example 3, not restated for this table).
Assay [4] has as its target T3, soluble HIR ectodomain (sIR) (human, UniProt P06213-2 28-944, limits assumed).
T3 construct: extracellular domain
As to the kind of experiment: FP competition vs FITC-RP9, sIR.

Assay [5] concerns the target human IGF-1 receptor (HIGF-1R) (human, UniProt P08069 31-1367). As to the kind of experiment: 125I-IGF-1 competition, solubilised HIGF-1R.
For assay [6], the target named is human insulin receptor (HIR) (human, UniProt P06213 28-1382, limits assumed). As to the kind of experiment: Kd(HIR), insulin competition.

One may read the Kd as the equilibrium constant for the complex coming apart. Higher therefore signals weaker binding. With FHENFYGWFVRQVSKK [S116], the dissociation constant Kd in assay [1] is 1400 nM.

As a reminder, the IC50 is the point on the concentration scale where inhibition reaches its midpoint. As to GGTVWPGYEWLRNA [E8], the IC50 in assay [2] was 175 nM.

B1: RB430 (other, not shown: large carriers)
chain: NNNNLGIEGRISEFIEGRDYKDDDDKFHENFYDWFVRQVSGGSGGSLDALDRLMRYFEERPSLGAPVPYPDPLEPR
notes: MBP fusion, uncleaved; also called RB430 (MBP fusion, uncleaved)
B1: the Kd in assay [3] was found to be 2100 nM.

As for SFYDWFERQLG (also called truncated-(-GSLDE)RP9(-KK)) [S391], in assay [4], the half-maximal inhibitory concentration (IC50) is 119 nM.

RNANFYDWFVAELG [S240] displayed a Kd in assay [1] of 1400 nM.

In assay [1], LDALDRLMRYFEERPSL [S173] showed a dissociation constant (Kd) of 1200 nM.

B2: 539 (peptide)
peptide: MADYKDDDDKWLDQEWAWVQCEVYGRGCPSGGSGGSGSLDESFYDWFERQLGKKAAAGAPVPYPDPLEPRPG
notes: recombinant dimer with tags at both ends; also called D8-6aa-RP9
In the case of B2, binding in assay [5] was characterised by a dissociation constant (Kd) of 1500 nM.

For the molecule CGGFHENFYDWFVRQVSKK [S227], in assay [1], binding was characterised by a dissociation constant (Kd) of 510 nM.

The molecule WSDFYSYFQGLD [S127] showed a dissociation constant (Kd) in assay [1] of 1200 nM.

B3: 434 (other, not shown: large carriers)
chain: NNNNLGIEGRISEFIEVRAQPAMARGGGTFYEWFESALRKHGAGGGSGGSGGSGGSRGGGTFYEWFESALRKHGAGAAAGAPVPYPDPLEPRAA
notes: MBP fusion; also called G3-12a-G3 (MBP fusion)
On to B3, for which the Kd in assay [6] worked out at 3200 nM.

B4: RB434 (other, not shown: large carriers)
chain: B3 chain
notes: MBP fusion, uncleaved
Molecule B4 came in with a Kd in assay [3] of 3200 nM.

QRNANFYDWFVAELG [S239] returned a Kd in assay [1] of 1300 nM.

For the origin of these results see patent US20030236190A1 (published 2003).
